## Apparent affinities of Ab-14 variants for a coronavirus HR2 peptide

All variants were tested on one target, the spike HR2 peptide PDVDLGDISGINAS (SARS-CoV-2).

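The parent was found by panning a naive human phage display library on the peptide. Designed CDR sequences, proposed from the first random library and measured here. Their group label is 14L_Ctrl (Ctrl: baseline library sampled from a position-specific scoring matrix, with some repeated check sequences). Affinity was read by AlphaSeq, a pooled yeast mating assay with surface-displayed partners. The frequency of each diploid, read from paired DNA barcodes, reflects how well the two displayed proteins bind. The ratio of observed to expected reads was calibrated, replicate by replicate, on BCL2-family standards whose Kd was known from biolayer interferometry. Mating was done six times.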

The variants keep the heavy chain, the linker and the frameworks of Ab-14 (scFv order VH, a (GGGGS)3 linker, VL).
VH: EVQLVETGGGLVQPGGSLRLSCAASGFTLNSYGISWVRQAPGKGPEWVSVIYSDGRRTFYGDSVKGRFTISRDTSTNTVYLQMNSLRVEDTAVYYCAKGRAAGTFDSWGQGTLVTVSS
VL: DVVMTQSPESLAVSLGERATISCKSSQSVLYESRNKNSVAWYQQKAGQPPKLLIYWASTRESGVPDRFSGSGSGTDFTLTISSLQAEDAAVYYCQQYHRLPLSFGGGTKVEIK

The whole VL of each variant is written out. The read-out is the apparent dissociation constant on a log10 scale (nM): the lower, the stronger. Averages over replicates are reported, and they cover detected replicates only. "n.d." means that the variant was in the library but no mating with the target was seen in that replicate; the authors take this as a sign of poor binding, and no number exists. Empty control strains, which show no peptide, gave a signal in 4% of pairings with all light chain designs; the median was 2.64 and 95% of these signals were weaker than 1.59. No background was subtracted. Also given: how often the same scFv was detected with the empty control strains, with their mean in brackets. A sequence measured in both rounds can read differently, since the two assays cover different ranges. Of ten entries with the parent sequence, four were seen in most replicates (averages 0.34 to 2.37), three in one and three in none, so single entries are noisy. In the paper, a design with two or fewer of six values counts as a poor binder.

VL,log10 Kd (nM) by replicate,"mean, log10 nM",signal with controls
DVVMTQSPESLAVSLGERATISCKSSNSVLYESRNKNSVAWYQQKAGQPPKLLIYEASTRENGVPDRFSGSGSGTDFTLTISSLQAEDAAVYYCQQYHRLPLSFGGGTKVEIK,0.60 / 0.05 / 0.01 / 0.14 / 0.92 / 0.35,0.34,1/18 (0.69)
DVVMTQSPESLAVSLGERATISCKSSNSVFYELINKNGVAWYQQKAGQPPKLLIYWASTRESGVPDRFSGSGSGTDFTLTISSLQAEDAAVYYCAQYHRLPLSFGGGTKVEIK,n.d. / n.d. / n.d. / n.d. / 2.70 / n.d.,2.70,0/18
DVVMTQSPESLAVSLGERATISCKSSQSHLYESRNKNSVAWYQQKAGQPPKLLIYWASTRESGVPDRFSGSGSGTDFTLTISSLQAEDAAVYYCQQIHRLPLSFGGGTKVEIK,2.29 / n.d. / n.d. / n.d. / n.d. / n.d.,2.29,0/18
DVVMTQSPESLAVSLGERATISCKSSQSVLEESRNKNSVAWYQQKAGQPPKLLIYWASTRESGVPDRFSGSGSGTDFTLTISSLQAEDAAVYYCQQYARLPLSFGGGTKVEIK,1.12 / 1.22 / 1.39 / 1.17 / 0.76 / 1.24,1.15,1/18 (2.89)
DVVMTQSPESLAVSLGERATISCKSSQSWLYESREKNNVAWYQQKAGQPPKLLIYWASTRHSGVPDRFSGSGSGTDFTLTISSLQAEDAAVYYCQQYHRLPLSFGGGTKVEIK,0.34 / n.d. / n.d. / 1.52 / n.d. / n.d.,0.93,0/18
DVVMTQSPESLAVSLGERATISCKSSNSDFYESRNKNSVAWYQQKAGQPPKLLIYWASTRESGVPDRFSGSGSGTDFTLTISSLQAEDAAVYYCQQYHRLPLSFGGGTKVEIK,0.98 / 1.66 / 0.19 / 0.48 / 1.58 / 0.84,0.95,0/18
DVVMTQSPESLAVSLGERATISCKSSQSVLYEETNKNSVAWYQQKAGQPPKLLIYEASYRETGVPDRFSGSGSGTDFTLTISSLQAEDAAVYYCQQYHRLPLSFGGGTKVEIK,0.79 / 0.84 / 0.72 / 0.20 / 0.88 / 0.55,0.66,0/18
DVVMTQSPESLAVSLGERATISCKLSQSNLMEDENKNSVAWYQQKAGQPPKLLIYAASTRESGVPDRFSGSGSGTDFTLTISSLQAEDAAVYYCQQYHRLPLSFGGGTKVEIK,0.54 / 0.09 / -0.08 / 0.02 / 0.26 / 0.85,0.28,0/18
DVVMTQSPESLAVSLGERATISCKSSPSVLYESQNKNSVAWYQQKAGQPPKLLIYWASTRESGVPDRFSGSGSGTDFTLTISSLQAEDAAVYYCQQYHRLPLSFGGGTKVEIK,1.30 / 1.43 / 0.68 / 1.18 / n.d. / 1.44,1.21,0/18
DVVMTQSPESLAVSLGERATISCKSSQSVLYESRNKNSVAWYQQKAGQPPKLLIYEASTRESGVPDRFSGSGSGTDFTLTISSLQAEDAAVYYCSQYHRLPLSFGGGTKVEIK,1.42 / 1.43 / 1.09 / 1.31 / 1.26 / 1.12,1.27,0/18
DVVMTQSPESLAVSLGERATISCKSSQSVLYEGRNKNSVAWYQQKAGQPPKLLIYNASEREVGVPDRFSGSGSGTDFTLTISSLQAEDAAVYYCQQYHRLPESFGGGTKVEIK,0.63 / 0.63 / 0.78 / 0.38 / 0.84 / 0.78,0.67,0/18
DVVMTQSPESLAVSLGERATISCKESFSVLYESPYKNSVAWYQQKAGQPPKLLIYGASTRESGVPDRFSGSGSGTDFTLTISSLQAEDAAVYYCQQYHRLPLSFGGGTKVEIK,0.13 / 0.42 / 0.18 / -0.11 / 0.00 / 0.28,0.15,3/18 (2.75)
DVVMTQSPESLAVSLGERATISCKSSQSVLYESRNKNSVAWYQQKAGQPPKLLIYWASTRESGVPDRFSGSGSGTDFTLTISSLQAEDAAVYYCGQYHRLPLSFGGGTKVEIK,n.d. / n.d. / n.d. / n.d. / n.d. / n.d.,n.d.,0/18
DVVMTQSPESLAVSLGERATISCHWSQSGLYEEQNKNSVAWYQQKAGQPPKLLIYWASTRESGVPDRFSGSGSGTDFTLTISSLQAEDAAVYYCQVYHRLPLSFGGGTKVEIK,n.d. / n.d. / n.d. / n.d. / n.d. / n.d.,n.d.,0/18
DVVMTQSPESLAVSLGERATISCKSSQSVLYESANKNDVAWYQQKAGQPPKLLIYEASTRESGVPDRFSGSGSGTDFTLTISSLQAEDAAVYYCQVYHRIPLSFGGGTKVEIK,1.34 / 1.53 / 1.10 / 0.55 / 0.94 / 0.61,1.01,0/18
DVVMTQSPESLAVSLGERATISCKLSQSVLYESRNRNSVAWYQQKAGQPPKLLIYWASIRESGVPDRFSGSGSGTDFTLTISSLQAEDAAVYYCQQYHRLPLSFGGGTKVEIK,0.87 / 0.40 / 0.56 / 0.57 / 0.56 / 1.06,0.67,0/18
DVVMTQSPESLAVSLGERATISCKSSISDLYESRNCNSVAWYQQKAGQPPKLLIYWASTRESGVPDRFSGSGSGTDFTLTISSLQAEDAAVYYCQQYIRLPISFGGGTKVEIK,n.d. / n.d. / n.d. / n.d. / n.d. / n.d.,n.d.,0/18
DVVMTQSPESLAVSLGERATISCKQSQSVLYESRDKNSVAWYQQKAGQPPKLLIYEASTRESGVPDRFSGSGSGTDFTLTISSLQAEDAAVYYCQQYQGLLLSFGGGTKVEIK,1.51 / 1.13 / 0.40 / 0.91 / 1.01 / 0.78,0.96,0/18
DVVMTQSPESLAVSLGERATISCKLSQSVLYESRNKNSVAWYQQKAGQPPKLLIYWASTRESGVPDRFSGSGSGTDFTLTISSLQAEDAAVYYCQQYHRPPLSFGGGTKVEIK,0.23 / 0.00 / 0.05 / 0.11 / -0.06 / 0.20,0.09,1/18 (2.47)
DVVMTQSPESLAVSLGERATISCKMSQSKLVESRNKNSVAWYQQKAGQPPKLLIYKASTRESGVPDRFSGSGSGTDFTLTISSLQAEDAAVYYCQQYHRLPLSFGGGTKVEIK,0.99 / 0.75 / 0.94 / 0.62 / 1.00 / 1.06,0.89,1/18 (2.76)

For reference, 2 entries of the list once more:

VL,log10 Kd (nM) by replicate,"mean, log10 nM",signal with controls
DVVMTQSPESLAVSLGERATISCKLSQSNLMEDENKNSVAWYQQKAGQPPKLLIYAASTRESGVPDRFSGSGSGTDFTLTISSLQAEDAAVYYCQQYHRLPLSFGGGTKVEIK,0.54 / 0.09 / -0.08 / 0.02 / 0.26 / 0.85,0.28,0/18
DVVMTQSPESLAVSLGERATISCKMSQSKLVESRNKNSVAWYQQKAGQPPKLLIYKASTRESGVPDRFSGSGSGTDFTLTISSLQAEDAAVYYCQQYHRLPLSFGGGTKVEIK,0.99 / 0.75 / 0.94 / 0.62 / 1.00 / 1.06,0.89,1/18 (2.76)

From the AlphaSeq antibody data of Li et al. 2023 (doi:10.1038/s41467-023-39022-2), copy in the FLAb collection.